Test results as given in US20260027128A1 (priority 2016, published 2026).

Tested on: male Sprague-Dawley rats
Settings: inhalation of remimazolam alone, 10 and 25 mg/mL, 5 min

SMILES: COC(=O)CC[C@@H]1N=C(c2ccccn2)c2cc(Br)ccc2-n2c(C)cnc21 [Remimazolam, methyl 3-[(4S)-8-bromo-1-methyl-6-(pyridin-2-yl)-4H-imidazo[1,2-a][1,4]benzodiazepin-4-yl]propanoate]
- Analgesia (time to tail flick): failed to produce analgesia
